Test results as given in paper PMC3335822 (PLoS ONE, 2012).

Biological target: T1, Eya3(ED) (Mus musculus, UniProt P97480)
T1 construct: The catalytic domain (ED) of mouse Eyes Absent 3 (Eya3(223–510)) was purified; made in house
T1 sequence (P97480 223-510): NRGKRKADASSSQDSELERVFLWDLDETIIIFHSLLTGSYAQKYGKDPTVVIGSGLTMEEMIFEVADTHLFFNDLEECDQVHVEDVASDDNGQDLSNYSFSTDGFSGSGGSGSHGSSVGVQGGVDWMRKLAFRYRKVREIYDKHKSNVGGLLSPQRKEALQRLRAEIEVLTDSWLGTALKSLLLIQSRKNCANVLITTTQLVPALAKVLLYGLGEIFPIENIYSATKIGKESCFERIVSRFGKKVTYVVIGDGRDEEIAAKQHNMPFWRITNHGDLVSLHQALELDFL
Assay: pNPP hydrolysis by the catalytic domain of Eya3
Format: biochemical
Conditions: substrate pNPP 3.4 mM, pH 6, 30°C, 30 minutes
Source text: The catalytic domain (ED) of mouse Eyes Absent 3 (Eya3(223–510)) was purified as described before. Human Eyes Absent 3 isoform 2 (representing the major species identified in human cell lines by mass spectrometry and residues 127–573 of NM_001990, isoform 1) was sub-cloned into pDEST565 to express a poly-histidine- Glutathione-S-transferase (His-GST) tagged fusion protein with a TVMV protease site. The protein was purified by glutathione-S-transferase affinity chromatography followed by TVMV cleavage, Ni-NTA chromatography, and finally size exclusion chromatography.
The NCI Diversity Set II was obtained from the NCI in 96-well trays from the NIH Molecular Libraries Program and stored as 10 mM stocks in DMSO. An initial manual screen was conducted using the previously described p-nitrophenylphosphate assay and mouse Eya3(223–510) in a reaction mixture containing 20 mM MES pH 6, 2 mM MgCl2, 125 μM inhibitor, 3.4 mM para-nitrophenol phosphate (pNPP) and 0.01 μg/µL enzyme.
Compounds were dissolved in DMSO and diluted as needed. […] Reactions were incubated at 30°C for 30 minutes and quenched with 100 mM EDTA pH 10. IC50 values were then calculated directly from regression curves using PRISM. All reported values are the mean of two independent experiments.

- IC50: 10.1 µM
Structure (SMILES): CCCCc1oc2ccccc2c1C(=O)c1ccc(O)cc1 [Compound 1b]
